The values below are quoted from earlier work in patent US20210000927A1, “MODULATORS OF COMPLEMENT ACTIVITY” (Ra Pharmaceuticals, Inc., priority 2017, published 2021).

This data set deals with patients with PNH. As to conditions: treated for 3 years with eculizumab.

B1: eculizumab: a C5 inhibitor monoclonal antibody, approved treatment for PNH (antibody, chains of the INN, looked up)
heavy: QVQLVQSGAEVKKPGASVKVSCKASGYIFSNYWIQWVRQAPGQGLEWMGEILPGSGSTEYTENFKDRVTMTRDTSTSTVYMELSSLRSEDTAVYYCARYFFGSSPNWYFDVWGQGTLVTVSSASTKGPSVFPLAPCSRSTSESTAALGCLVKDYFPEPVTVSWNSGALTSGVHTFPAVLQSSGLYSLSSVVTVPSSNFGTQTYTCNVDHKPSNTKVDKTVERKCCVECPPCPAPPVAGPSVFLFPPKPKDTLMISRTPEVTCVVVDVSQEDPEVQFNWYVDGVEVHNAKTKPREEQFNSTYRVVSVLTVLHQDWLNGKEYKCKVSNKGLPSSIEKTISKAKGQPREPQVYTLPPSQEEMTKNQVSLTCLVKGFYPSDIAVEWESNGQPENNYKTTPPVLDSDGSFFLYSRLTVDKSRWQEGNVFSCSVMHEALHNHYTQKSLSLSLG
light: DIQMTQSPSSLSASVGDRVTITCGASENIYGALNWYQQKPGKAPKLLIYGATNLADGVPSRFSGSGSGTDFTLTISSLQPEDFATYYCQNVLNTPLTFGQGTKVEIKRTVAAPSVFIFPPSDEQLKSGTASVVCLLNNFYPREAKVQWKVDNALQSGNSQESVTEQDSKDSTYSLSSTLTLSKADYEKHKVYACEVTHQGLSSPVTKSFNRGEC
Turning to B1, the patients transfusion-dependent is recorded as 20% and the patients transfusion-independent was 80%.
